Measured values published in patent US20060135491A1, “Vitamin D3 analog useful for the treatment of osteoporosis” (priority 2004, published 2006).

System: MCF-7 cells
Assay: Cell proliferation, [3H]thymidine incorporation
Assay type: cell-based
Conditions: in comparison with 1α,25(OH)2D3 as control (100% activity); 72 hours incubation
Procedure: The compound of the present invention was evaluated for its effect on cell proliferation. […] The cultures were maintained at 37° C. in an atmosphere of humidified air containing 5% CO2. The MCF-7 cells were seeded at approximately 5×10^3 cells/well in the DMEM modified medium in a 96-well microtiter plate. […] Finally, 1 μCi of [^3H]thymidine was added to each well and the cells were harvested after a further 4 hour incubation period. The cells were harvested with a Packard Harvester and the cell count measured by a Packard Topcount System.

Which “MCF-7 cell proliferation, percentage activity (at 50% of the dose response)” value does the source give for `C=C1/C(=C\C=C2/CCC[C@]3(C)[C@@H]([C@H](C)CCCC(C)(C)O)CC[C@@H]23)C[C@@H](O)C[C@@H]1O` [1α,25(OH)2D3, 1α,25-dihydroxyvitamin D3] here?
The value was 100%.
